This test has as its target ATP-dependent translocase ABCB1 (Homo sapiens, UniProt P08183).

Protein sequences, listed by entry. Tags and fused reporters are not part of them.
UniProt P08183, whole entry: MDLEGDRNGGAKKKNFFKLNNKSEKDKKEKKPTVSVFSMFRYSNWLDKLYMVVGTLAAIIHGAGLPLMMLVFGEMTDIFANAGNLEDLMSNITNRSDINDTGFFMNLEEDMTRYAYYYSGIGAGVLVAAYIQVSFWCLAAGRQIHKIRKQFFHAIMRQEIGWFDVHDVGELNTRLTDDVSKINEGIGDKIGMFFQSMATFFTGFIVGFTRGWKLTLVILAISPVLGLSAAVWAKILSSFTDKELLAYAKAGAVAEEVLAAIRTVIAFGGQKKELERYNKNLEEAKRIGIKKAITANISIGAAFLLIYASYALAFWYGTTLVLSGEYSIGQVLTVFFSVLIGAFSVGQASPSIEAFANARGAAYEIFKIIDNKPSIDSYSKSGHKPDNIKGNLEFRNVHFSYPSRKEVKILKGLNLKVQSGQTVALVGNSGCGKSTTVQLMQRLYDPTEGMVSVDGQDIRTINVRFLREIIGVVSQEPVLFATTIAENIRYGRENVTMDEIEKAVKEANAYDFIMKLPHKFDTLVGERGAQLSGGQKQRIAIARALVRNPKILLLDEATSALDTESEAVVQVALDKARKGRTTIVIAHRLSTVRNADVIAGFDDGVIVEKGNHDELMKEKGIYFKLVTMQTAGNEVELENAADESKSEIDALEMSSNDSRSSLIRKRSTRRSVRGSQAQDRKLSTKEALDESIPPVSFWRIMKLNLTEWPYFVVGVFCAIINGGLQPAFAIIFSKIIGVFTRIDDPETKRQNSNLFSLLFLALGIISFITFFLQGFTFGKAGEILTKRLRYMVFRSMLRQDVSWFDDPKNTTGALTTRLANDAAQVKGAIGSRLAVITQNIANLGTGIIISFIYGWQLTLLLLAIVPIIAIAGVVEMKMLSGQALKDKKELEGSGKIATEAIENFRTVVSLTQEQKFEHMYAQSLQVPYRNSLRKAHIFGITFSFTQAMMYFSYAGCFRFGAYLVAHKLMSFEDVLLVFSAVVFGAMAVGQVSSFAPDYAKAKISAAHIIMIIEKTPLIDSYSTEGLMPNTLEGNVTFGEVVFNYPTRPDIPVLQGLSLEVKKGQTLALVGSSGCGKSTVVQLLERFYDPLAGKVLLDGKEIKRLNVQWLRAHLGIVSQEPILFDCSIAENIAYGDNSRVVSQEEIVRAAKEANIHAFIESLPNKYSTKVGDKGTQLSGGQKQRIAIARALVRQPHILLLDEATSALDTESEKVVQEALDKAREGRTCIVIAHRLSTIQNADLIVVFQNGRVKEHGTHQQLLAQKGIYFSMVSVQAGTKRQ

Each structure is given as a SMILES string.

The IC50 is the midpoint of a concentration-inhibition curve. Lower therefore signals higher potency. In turn, `O=C1CCc2ccc(OCCCCN3CCN(c4cccc(Cl)c4Cl)CC3)cc2N1` [ARIPIPRAZOLE] had an IC50 of 780 nM.

The values are drawn from ChEMBL document CHEMBL1777785, “A novel approach for predicting P-glycoprotein (ABCB1) inhibition using molecular interaction fields” (J Med Chem, 2011).
